Test results from patent US4514403A, “Hydrouracil compounds” (Yoshitomi Pharmaceutical Industries Ltd., priority 1980, dated 1985).
Structures can show the parent of a compound that is named as a salt.

Tests used:
[1] = system: evoked potentials in central nervous system; test: Effect on the various evoked potentials in central nervous system; format: in vivo, Male Wistar rats; design: key to Amplitude of Evoked Responses, VP-COR / Amplitude of Evoked Responses, HIP-AMY / Amplitude of Evoked Responses, HIP-SEP: -: No change; --: No change; (+): Levallorphan antagonism; (-): Levallorphan antagonism
Protocol: Male Wistar rats, weighing 300-350 g, were used under ethyl ether anesthesia. The trachea and femoral vein were cannulated for artificial respiration and drug injection, respectively. Immobilization of the rat was maintained by gallamine thioethiodide (10 mg/kg) given intravenously every one hours. All wound edges were infiltration with carbocaine hydrochloride. The experiments began after at least 2 hours had elapsed from discontinuance of ether anesthesia. The COR (somatosensory cortex) evoked potentials by VP (neucleus ventralis posterior thalamus) stimulation (VP - COR evoked potential) were recorded from somatosensory cortex, through a silver electrode applied directly to the cortex. In order to record VP and MRF (midbrain reticular formation) evoked potentials by sciatic nerve stimulation or AMY (amygdala) and SEP (septum) evoked potentials by HIP (hippocampus) stimulation, bipolar stainless steel electrodes were stereotaxically placed into the VP, MRF, AMY, SEP and HIP. The stimuli were delivered to various sites every 2 seconds from a stimulation and consisted of 0.1 msec rectangular pulses (twice threshold intensity). The evoked responses were visualized on an oscilloscope. All records were made up of 20 superimposed tracings.

in vivo = conditions: rat
AgNO3 arthritis test = conditions: for ED50: Rattus norvegicus, sc, read-out: AgNO3 Arthritis Test ED50; for Inhibition (%) of Occurrence of Pain: rats, 5 mg/kg s.c.
Electric stimuli test = conditions: for ED50: Mus musculus, read-out: Electric Stimuli Test ED50
[2] = Phenylquinone writhing test; conditions: for ED50: Mus musculus, read-out: Phenylquinone Writhing Test ED50; for Inhibition (%) of Occurrence of Pain: mice, 0.5 mg/kg s.c.
[3] = Bradykinin nociception test; conditions: for ED50: Rattus norvegicus, read-out: Bradykinin Nociception Test ED50; for Inhibition (%) of Occurrence of Pain: rats, 2.5 mg/kg s.c.
[4] = system: ventro-medial hypothalamus; conditions: compared with Test compound B; cited from earlier work
Hot plate test = conditions: Rattus norvegicus, sc, read-out: Hot Plate Test ED50
[5] = Tooth pulp nociception test
Tolerance test = format: in vivo; conditions: continuous administration
[6] = rat, in vivo
[7] = rat, in vivo; remark: listed apart in the source
Mouse jumping test = conditions: administration at a lethal dose
[8] = Antagonism by levallorphan in electric stimuli test; conditions: electric stimuli test in mice; levallorphan (narcotic antagonist)
[9] = calculated from inhibition (%) in a low dose

Compound | Amplitude of Evoked Responses, HIP-AMY ([1]; 10 mg/kg i.v.) | Amplitude of Evoked Responses, HIP-SEP ([1]; 10 mg/kg i.v.) | Amplitude of Evoked Responses, HIP-AMY ([1]; 25 mg/kg i.v.) | Amplitude of Evoked Responses, HIP-SEP ([1]; 25 mg/kg i.v.) | LD50 (in vivo; ip) | LD50 (in vivo; po) | ED50 (AgNO3 arthritis test) | ED50 (Electric stimuli test; po) | ED50 (Electric stimuli test; sc) | ED50 ([2]; po) | ED50 ([2]; sc) | ED50 ([3]; sc) | LD50 (in vivo; sc) | ED50 (Hot plate test) | Inhibition (%) of Occurrence of Pain (AgNO3 arthritis test) | Inhibition (%) of Occurrence of Pain [2] | ED50 ([3]; po) | Inhibition (%) of Occurrence of Pain [3] | other results
Cc1c(N(C)C)c(=O)n(-c2ccccc2)n1C [Aminopyrine, reference compound] | -- | -- | -- | -- | 248 mg/kg | 1050 mg/kg | 170 mg/kg | 315 mg/kg | 100 mg/kg | 92 mg/kg | 16 mg/kg | 30 mg/kg |  |  |  |  |  |  | Amplitude of Evoked Responses, VP-COR ([1]; 10 mg/kg i.v.): --; Amplitude of Evoked Responses, HIP-AMY ([1]; 50 mg/kg i.v.): --; Amplitude of Evoked Responses, HIP-SEP ([1]; 50 mg/kg i.v.): --
CN1C(=O)CN=C(c2ccccc2)c2cc(Cl)ccc21 [diazepam] |  |  |  |  |  |  |  |  |  |  |  |  |  |  |  |  |  |  | inhibition of threatening and rage reactions [4]: less active
CC(C)=CCN1CCC2(C)c3cc(O)ccc3CC1C2C (centres unmarked) [Pentazocine] |  |  |  |  |  | 1100 mg/kg | 10 mg/kg | 178 mg/kg | 23 mg/kg | 18 mg/kg | 1.3 mg/kg | 8 mg/kg | 270 mg/kg | 30 mg/kg | 33% | 15% | 100 mg/kg | 13% | Relative potency (Test compound A = 1), AgNO3 Arthritis Test (AgNO3 arthritis test; calculated from ED50): 0.7; Relative potency (Test compound A = 1), AgNO3 Arthritis Test (AgNO3 arthritis test; [9]): 0.78; Relative potency (Test compound A = 1), Phenylquinone Writhing Test ([2]; calculated from ED50): 0.77; Relative potency (Test compound A = 1), Phenylquinone Writhing Test [2, 9]: 0.31; Relative potency (Test compound A = 1), Tooth Pulp Nociception Test ([5]; calculated from ED50): 0.82; Relative potency (Test compound A = 1), Tooth Pulp Nociception Test [5, 9]: 0.59; increasing rate in threshold ([5]; rabbits, 2.5 mg/kg i.v.): 44%; Relative potency (Test compound A = 1), Bradykinin Nociception Test ([3]; calculated from ED50): 0.5; Relative potency (Test compound A = 1), Bradykinin Nociception Test [3, 9]: 0.34
O=C1CCN(C2CCN(CCc3ccccc3)CC2)C(=O)N1 [Test compound D, 1-(1-phenethyl-4-piperidyl)hydrouracil hydrochloride] |  |  |  |  | 180 mg/kg | 500 mg/kg | 90 mg/kg | 220 mg/kg | 100 mg/kg | 4 mg/kg | 2.5 mg/kg | 25 mg/kg | 450 mg/kg | 200 mg/kg |  |  |  |  | 
CN1CC[C@]23c4c5ccc(O)c4O[C@H]2[C@@H](O)C=C[C@H]3[C@H]1C5 [Morphine] |  |  |  |  |  |  | 0.8 mg/kg |  | 3 mg/kg | 2.1 mg/kg | 0.4 mg/kg | 6 mg/kg |  | 4 mg/kg | 100% | 78% | 50 mg/kg | 17% | Electric Stimuli Test ED50 (Electric stimuli test; mice, p.o.): 17 mg/kg
CN1C(=O)CCN(C2CCN(CCc3ccccc3)CC2)C1=O [Test compound C, 1-(1-phenethyl-4-piperidyl)-3-methyl-hydrouracil hydrochloride] | -- | -- | -- | -- | 150 mg/kg | 900 mg/kg | 45 mg/kg | 220 mg/kg | 50 mg/kg | 5 mg/kg | 1.5 mg/kg | 70 mg/kg | 700 mg/kg | 10 mg/kg |  |  | 400 mg/kg |  | cross tolerance against codeine (Tolerance test): did not show a cross tolerance against codeine; tolerance (decrease of effects) (Tolerance test): did not cause a significant decrease of effects; Amplitude of Evoked Responses, HIP-AMY ([1]; 5 mg/kg i.v.): --; Amplitude of Evoked Responses, HIP-SEP ([1]; 5 mg/kg i.v.): --; Amplitude of Evoked Responses, VP-COR ([1]; 5 mg/kg i.v.): --; body weight reduction [6]: not reduced; compensatory adjustment against codeine [7]: had not compensatory adjustment against codeine; jumping symptom (Mouse jumping test): did not cause any jumping symptom; Influence of levallorphan on analgesic activity [8]: did not influence the analgesic activity
